In this test the test system is CHOP reporter cell assay, percent of control. The test can be described thus: CHOP reporter inhibitor potency, dose response, cell-based (AID 504322).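 Further: CHO cells carrying a CHOP reporter stimulated with tunicamycin to induce ER stress; potency is for inhibition of the stress-induced reporter signal.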

Turning to `CCCCCCCCNC(C)C(O)c1ccc(SC(C)C)cc1` (configuration not stated), the IC50 (usually the midpoint of a concentration-inhibition curve) was 2530 nM.
Turning to `CN[C@H]1C[C@H]2O[C@@](C)([C@H]1OC)n1c3ccccc3c3c4c(c5c6ccccc6n2c5c31)C(=O)NC4`, the IC50 was under 160 nM.

The values above are taken from PubChem BioAssay AID504322 (Emory University Molecular Libraries Screening Center, 2011).
